pKd: −log10 of the molar value.

For orientation: pKd means the negative decadic logarithm of the Kd, by convention in mol/L.

In experiment [1] the target is T1, maxadilan receptor in crude membrane fraction from the cattle brain (Bos taurus, UniProt Q29627).
T1 construct: Likewise, crude membrane fractions were prepared; from tissue; host or cells: cattle brain, crude membrane fraction
T1 sequence (Q29627 38-513): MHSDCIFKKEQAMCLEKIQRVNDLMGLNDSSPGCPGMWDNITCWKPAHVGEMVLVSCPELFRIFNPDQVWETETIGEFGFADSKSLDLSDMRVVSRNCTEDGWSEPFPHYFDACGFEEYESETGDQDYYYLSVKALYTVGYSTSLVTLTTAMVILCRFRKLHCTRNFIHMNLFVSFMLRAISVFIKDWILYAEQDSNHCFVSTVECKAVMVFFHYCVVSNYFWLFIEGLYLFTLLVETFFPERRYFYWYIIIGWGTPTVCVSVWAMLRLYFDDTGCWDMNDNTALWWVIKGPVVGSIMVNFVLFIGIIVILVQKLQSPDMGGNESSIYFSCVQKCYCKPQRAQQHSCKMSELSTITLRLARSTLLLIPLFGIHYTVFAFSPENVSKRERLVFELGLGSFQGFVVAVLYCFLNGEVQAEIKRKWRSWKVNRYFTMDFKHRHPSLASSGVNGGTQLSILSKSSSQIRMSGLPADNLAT
As to the kind of experiment: Binding test (tissue): 125I-Max, cattle brain crude membrane fraction. The note with it: read-out: dissociation constant (Kd). On the procedure:
(§1) Likewise, crude membrane fractions were prepared, respectively, from the brain, liver, pancreas, spleen, aorta and kidney of a rabbit, and the brains of a rat, a mouse, cattle and a human being.
(§2) Purified maxadilan (see SEQ ID NO: 2) was labeled with ^125I according to a usual method using chloramine T, and fractionated by HPLC (high performance liquid chromatography : SHIMADZU LC-6A) to obtain a labeled compound having a specific activity of 2,000 Ci/mmol.
(§3) 70 pM of radioactive maxadilan (^125I-Max) was incubated at 4° C. for 2 hours together with 400 μg/ml of each crude membrane fraction in the absence or presence of 1 μM of maxadilan. After completion of the reaction, ^125I-Max bound to the membrane was separated by subjecting the resultant incubation matter to suction filtration using a GF/C glass filter (Whatman GF/C), and the radioactivity of the glass filter after being dried was measured by a γ-counter.
(§4) As is the case of FIGS. 3 and 4, the dissociation constant (Kd) and the maximum binding amount (Bmax) on each tissue were calculated, from a Scatchard plot and saturation curve prepared using each tissue.

Experiment [2] addresses maxadilan receptor in crude membrane fraction from the rabbit brain. Nature of the experiment: Binding test (tissue): 125I-Max saturation / Scatchard, rabbit brain crude membrane fraction. The note with it: from Scatchard plot and saturation curve, read-out: dissociation constant (Kd). On the procedure: The brain of a rabbit (excluding the cerebellum) was homogenized in the following buffer using Polytron PT 3000 (produced by […]).
50 mM Tris-HCl (pH 7.6), 0.32 M sucrose, 5 mM EDTA (ethylenediaminetetraacetic acid), 1 μg/ml leupeptin, 1 μg/ml pepstatin A, 2 μg/ml bacitracin and 10 μg/ml PMSF (phenylmethylsulfonyl fluoride)
The homogenate was low speed centrifuged (1,000×g), the resultant precipitate was homogenized again, the resultant supernatants were combined and high speed centrifuged (30,000×g), and the precipitate was named a crude membrane fraction. […]
as §3, §4

The target of experiment [3] is T2, maxadilan receptor in crude membrane fraction from the rat brain (Rattus norvegicus, UniProt P32215).
T2 construct: Likewise, crude membrane fractions were prepared; from tissue; host or cells: rat brain, crude membrane fraction
T2 sequence (P32215 20-523): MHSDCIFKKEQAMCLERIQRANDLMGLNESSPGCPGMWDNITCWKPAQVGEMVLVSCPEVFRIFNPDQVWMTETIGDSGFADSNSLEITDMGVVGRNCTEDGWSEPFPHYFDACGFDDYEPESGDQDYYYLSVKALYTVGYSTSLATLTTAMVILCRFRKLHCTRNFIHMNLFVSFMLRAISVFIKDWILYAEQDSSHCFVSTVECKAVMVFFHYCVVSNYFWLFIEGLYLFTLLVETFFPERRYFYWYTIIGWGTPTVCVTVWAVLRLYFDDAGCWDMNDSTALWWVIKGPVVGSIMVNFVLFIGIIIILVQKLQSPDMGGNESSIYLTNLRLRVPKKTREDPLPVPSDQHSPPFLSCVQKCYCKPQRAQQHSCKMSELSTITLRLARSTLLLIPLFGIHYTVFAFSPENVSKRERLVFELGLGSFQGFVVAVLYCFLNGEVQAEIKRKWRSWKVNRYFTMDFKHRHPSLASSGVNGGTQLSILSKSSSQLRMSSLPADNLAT
As to the kind of experiment: Binding test (tissue): 125I-Max, rat brain crude membrane fraction. The note with it: read-out: dissociation constant (Kd). On the procedure: as §1, §2, §3, §4

The target in experiment [4] is T3, maxadilan receptor in crude membrane fraction from the mouse brain (Mus musculus, UniProt P70205).
T3 construct: Likewise, crude membrane fractions were prepared; from tissue; host or cells: mouse brain, crude membrane fraction
T3 sequence (P70205 21-496): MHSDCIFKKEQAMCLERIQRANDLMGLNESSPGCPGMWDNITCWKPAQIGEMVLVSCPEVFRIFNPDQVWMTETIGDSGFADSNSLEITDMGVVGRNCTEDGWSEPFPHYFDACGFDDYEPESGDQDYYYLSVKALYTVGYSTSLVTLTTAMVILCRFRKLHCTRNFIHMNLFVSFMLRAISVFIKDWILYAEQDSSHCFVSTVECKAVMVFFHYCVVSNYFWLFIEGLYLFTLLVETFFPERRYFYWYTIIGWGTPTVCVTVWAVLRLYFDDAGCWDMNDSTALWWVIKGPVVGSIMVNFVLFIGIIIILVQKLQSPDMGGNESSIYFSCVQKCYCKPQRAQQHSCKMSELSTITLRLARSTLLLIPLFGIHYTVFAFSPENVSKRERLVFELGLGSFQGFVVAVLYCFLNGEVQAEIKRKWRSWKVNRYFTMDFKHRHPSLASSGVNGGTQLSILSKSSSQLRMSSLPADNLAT
Nature of the experiment: Binding test (tissue): 125I-Max, mouse brain crude membrane fraction. The note with it: read-out: dissociation constant (Kd). The protocol: as §1, §2, §3, §4

As for maxadilan, the pKd in experiment [1] was 10.18; in experiment [2], 10.18; in experiment [3], 9.79; in experiment [4] it was 10.17.
